# Laboratory results published in PubChem BioAssay AID492992 (Johns Hopkins Ion Channel Center, 2010).
# Chains of the proteins cited; added tags and fusions are not shown. Lines headed by an entry give the natural chain unless they say otherwise; changes in a name come on top.
# UniProt Q9NPC2: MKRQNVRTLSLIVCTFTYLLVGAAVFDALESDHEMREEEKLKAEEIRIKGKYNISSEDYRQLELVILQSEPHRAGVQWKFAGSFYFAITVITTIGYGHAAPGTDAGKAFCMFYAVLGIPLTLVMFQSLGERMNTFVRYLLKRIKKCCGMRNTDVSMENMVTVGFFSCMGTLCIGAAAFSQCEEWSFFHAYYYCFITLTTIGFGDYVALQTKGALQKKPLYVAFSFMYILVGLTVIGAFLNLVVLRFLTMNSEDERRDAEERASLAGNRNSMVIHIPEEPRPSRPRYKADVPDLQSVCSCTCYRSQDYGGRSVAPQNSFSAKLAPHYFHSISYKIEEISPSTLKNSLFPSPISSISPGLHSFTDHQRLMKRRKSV
# This is a selection; strong and weak results do not stand in their true shares. The source made the active and inactive calls.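 The calls were made as follows: active = thallium signal inhibited by more than 5 SD of the compound-free buffer control wells, on both duplicate plates; inactive = the rest.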
# Biological target: Potassium channel subfamily K member 9 (Homo sapiens) (UniProt Q9NPC2)
# Experiment: blockers of human TASK-3 (KCNK9) channel – HEK293 cells, thallium flux, duplicate, confirmation (AID 492992);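 also: 0% = assay buffer control wells without compound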
# Conditions: FluxOR thallium flux fluorescence, at 10 µM, hits give high values
row,SMILES,inhibition
1,O=P(Nc1nccs1)(c1ccccc1)c1nc2ccccc2s1 (stereo unspecified),active: 39.5%
